Key:
[1] = tested on: isolated rat brain mitochondria; assay: t-BuOOH-induced oxidative stress model: GSH level; details: toxic agent applied alone, compared to control
[2] = tested on: isolated rat brain mitochondria; assay: t-BuOOH-induced oxidative stress model: MDA production; details: toxic agent applied alone, compared to control

CC(C)(C)OO
decrease of GSH level by toxic agent alone [1]: 50%
increase of MDA production by toxic agent alone [2]: 154%

Source: publication PMC11433870, “Neurotoxicity, Neuroprotection, In Vitro MAOA/MAOB Inhibitory Activity Assessment, Molecular Docking, and Permeability Assay Studies of Newly Synthesized Hydrazones Containing a Pyrrole Ring” (Molecules, 2024)
